Consider 29 compounds from PubChem BioAssay AID1481 (The Scripps Research Institute Molecular Screening Center, 2009).

By UniProt entry, the sequences of proteins in these tests, tags left out.
UniProt P55072, whole entry: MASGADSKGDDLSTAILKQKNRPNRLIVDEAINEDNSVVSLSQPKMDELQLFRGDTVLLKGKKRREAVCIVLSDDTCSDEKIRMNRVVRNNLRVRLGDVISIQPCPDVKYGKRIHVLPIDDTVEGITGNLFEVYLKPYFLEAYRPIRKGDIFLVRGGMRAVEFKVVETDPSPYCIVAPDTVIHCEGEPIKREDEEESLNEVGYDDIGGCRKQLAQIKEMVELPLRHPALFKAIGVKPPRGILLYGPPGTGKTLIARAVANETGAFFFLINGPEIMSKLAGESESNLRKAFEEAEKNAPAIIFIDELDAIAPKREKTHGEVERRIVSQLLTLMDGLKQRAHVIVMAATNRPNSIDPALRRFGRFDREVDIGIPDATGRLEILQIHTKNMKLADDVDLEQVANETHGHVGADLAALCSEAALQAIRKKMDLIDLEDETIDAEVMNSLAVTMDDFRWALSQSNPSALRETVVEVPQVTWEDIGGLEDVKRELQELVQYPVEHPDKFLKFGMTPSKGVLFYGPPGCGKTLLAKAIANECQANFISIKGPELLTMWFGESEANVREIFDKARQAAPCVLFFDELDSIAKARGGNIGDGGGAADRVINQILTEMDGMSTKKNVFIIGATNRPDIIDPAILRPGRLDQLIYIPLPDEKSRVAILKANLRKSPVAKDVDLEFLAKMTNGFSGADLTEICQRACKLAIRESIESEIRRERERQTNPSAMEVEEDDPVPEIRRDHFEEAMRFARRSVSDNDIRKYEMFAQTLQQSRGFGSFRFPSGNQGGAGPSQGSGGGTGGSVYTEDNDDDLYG

The entries are a selection whose mix differs from that of the whole data set. The source made the active and inactive calls. No stated cut-off is given here; in the data, active means inhibition above about 15%; inactive means the rest.

The target in this assay is Transitional endoplasmic reticulum ATPase (Homo sapiens) (UniProt P55072). The assay can be described thus: p97 ATP hydrolysis blockers – biochemical, primary screen (AID 1481).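 Further: 0% = DMSO vehicle and 100% = wells lacking enzyme.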 The conditions noted are these: recombinant p97 ATPase, Kinase-Glo ATP luminescence, 3 h; at 8 µM; hits give high values. On the technique in general: Kinase-Glo measures the ATP left after a reaction by luminescence.
A word on the inhibition: it is the relative decrease from the control value, in per cent. As for `COc1ccc(CN(CCCl)CCCl)cc1Cl`, the inhibition is inactive: 13.2%.

In the case of `CN(C)c1cccc(C(=O)NCC2(N3CCCCC3)CCCCC2)c1`, the inhibition is inactive: 7.07%.

For `CC(C)c1ccc(NC2CCN(C(=O)OC(C)(C)C)CC2)cc1`, the inhibition was inactive: -1.69%.

As to `CN1CCC(Nc2cccc(F)c2)CC1`, the inhibition was inactive: 5.2%.

Regarding `O=C(NCC1(N2CCCCC2)CCCCC1)c1cccc([N+](=O)[O-])c1`, the inhibition was inactive: 2.73%.

With `N#CC1(Nc2ccccc2)CCN(CCc2ccccc2)CC1`, the inhibition was inactive: 1.5%.

In the case of `CN1CCN(CCOC(=O)C(O)(c2ccccc2)c2ccccc2)CC1`, the inhibition was inactive: 5.06%.

Regarding `COc1ccc(NC2CCN(C(=O)OC(C)(C)C)CC2)cc1`, the inhibition was inactive: -0.51%.

Regarding `O=C(NCC1(N2CCOCC2)CCCCC1)c1cc(=O)[nH]c2ccccc12`, the inhibition was inactive: 1.74%.

Consider `COc1ccc(NC2CCN(CCc3ccccc3)CC2)c(OC)c1`, for which the inhibition is inactive: -0.33%.

Regarding `CCOc1ccc(C)cc1CN(CCCl)CCCl`, the inhibition was inactive: 7.14%.

`Cc1ccc(OCC(C)C)c(CN(CCCl)CCCl)c1`: the inhibition is inactive: -7.17%.

For `COc1ccc(C(=O)NCC2(N3CCCCC3)CCCCC2)c(OC)c1OC`, the inhibition was inactive: 2.62%.

Turning to `CCOC(=O)N1CCC(Nc2ccc(OC)cc2)CC1`, the inhibition was inactive: 4.03%.

`N#CC1(Nc2ccccc2)CCN(Cc2ccccc2)CC1`: the inhibition was inactive: 4.07%.

Take `O=C(OC1CN2CCC1CC2)C1c2ccccc2Oc2ccccc21` (centres undefined): the inhibition was inactive: -0.9%.

Regarding `O=C(NCC1(N2CCOCC2)CCCCC1)c1cc2ccccc2o1`, the inhibition is inactive: -0.47%.

Take `CC(C)(C)OC(=O)N1CCC(Nc2ccccc2)CC1`: the inhibition was inactive: -1.67%.

Take `CCOc1ncccc1C(=O)NCC1(N2CCOCC2)CCCCC1`: the inhibition is inactive: -4.47%.

On to `CCCOc1ccc(C)cc1CN(CCCl)CCCl`, for which the inhibition is inactive: 11.1%.

`CCC(CO)(C(=O)OC1CN2CCC1CC2)c1ccccc1` (centres undefined): the inhibition is inactive: 1.71%.

As for `COc1cc(OC)cc(C(=O)NCC2(N3CCOCC3)CCCCC2)c1`, the inhibition is inactive: -3.33%.

With `CN(C)c1ccc(C(=O)NCC2(N3CCCCC3)CCCCC2)cc1`, the inhibition was inactive: 3.61%.

For the compound `CCN1CCC(Nc2cccc(F)c2)CC1`, the inhibition is inactive: 0%.

With `N#Cc1ccc(C(=O)NCC2(N3CCCCC3)CCCCC2)cc1`, the inhibition was inactive: 1.09%.

With `c1ccc(CN2CCC(Nc3ccccc3)CC2)cc1`, the inhibition is inactive: 0.81%.

For `COc1ccc(C(=O)NCC2(N3CCOCC3)CCCCC2)cc1OC`, the inhibition was inactive: 3.29%.

Turning to `O=C(OC1CN2CCC1CC2)C1c2ccccc2C=Cc2ccccc21` (centres undefined), the inhibition was inactive: 3.01%.

Regarding `N/C(=N\O)c1c(N)no[n+]1[O-]`, the inhibition is inactive: 3.01%.
